# Results published in PubChem BioAssay AID624126 (The Scripps Research Institute Molecular Screening Center, 2012).
# Protein sequences, listed by entry. Tags and fused reporters are not part of them.
# UniProt P08173, whole entry: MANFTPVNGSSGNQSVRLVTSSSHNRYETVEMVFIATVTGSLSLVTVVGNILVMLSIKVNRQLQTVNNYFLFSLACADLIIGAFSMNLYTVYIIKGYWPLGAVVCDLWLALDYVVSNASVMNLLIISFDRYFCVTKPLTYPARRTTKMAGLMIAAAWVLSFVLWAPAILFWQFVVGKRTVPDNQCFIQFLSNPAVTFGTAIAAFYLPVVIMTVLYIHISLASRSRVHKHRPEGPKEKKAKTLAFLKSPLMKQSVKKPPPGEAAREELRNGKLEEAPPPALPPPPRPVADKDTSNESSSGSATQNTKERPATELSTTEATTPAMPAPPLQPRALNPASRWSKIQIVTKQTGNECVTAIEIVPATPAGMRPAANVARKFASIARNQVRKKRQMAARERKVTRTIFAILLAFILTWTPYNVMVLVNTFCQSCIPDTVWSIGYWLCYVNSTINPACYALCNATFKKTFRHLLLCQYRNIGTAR
# The entries are a selection whose mix differs from that of the whole data set. Active and inactive are the calls of the source.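 Rule for the calls: active = activation above its plate's cutoff, the mean activation of sample wells plus 3 SD; inactive = the rest.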
# Biological target: Muscarinic acetylcholine receptor M4 (Homo sapiens) (UniProt P08173)
# Test: human M4 muscarinic receptor positive allosteric modulators, primary screen, CHO-K1 cells, Fluo-8 calcium fluorescence (AID 624126)
# Conditions: CHO-K1 hM4/Gqi5, Fluo-8 calcium fluorescence, ACh EC20; at 3 µM; active compounds read high; 0% = ACh EC20, 100% = maximal ACh
row,SMILES,activation
1,CC(C)(C)n1nnnc1C(c1ccnc2ccccc12)N1CCC(n2c(=O)[nH]c3ccccc32)CC1 (stereo not given),inactive: 3.63%
2,COc1ccc(C(c2nnnn2C2CCCCC2)N2CCC(n3c(=O)[nH]c4ccccc43)CC2)cc1 (stereo not given),inactive: 0%
3,CCN1CCC(Nc2cccc(F)c2)CC1,inactive: -3.68%
4,Cc1ccccc1NC1(C#N)CCN(Cc2ccccc2)CC1,inactive: -3.13%
5,Cn1c(=O)[nH]cc(N(CCCl)CCCl)c1=O,inactive: -1.3%
6,CN(C)c1ccc(C(=O)NCC2(N3CCCCC3)CCCCC2)cc1,inactive: 4.21%
7,O=C(NCC1(N2CCCCC2)CCCCC1)c1ccco1,inactive: 1.11%
8,O=c1[nH]c2ccccc2n1C1CCN(C(c2ccnc3ccccc23)c2nnnn2C2CCCCC2)CC1 (stereo not given),inactive: -8.88%
9,COc1cc(OC)cc(C(=O)NCC2(N3CCCCC3)CCCCC2)c1,inactive: -5.74%
10,CCC(c1nnnn1C1CCCCC1)N1CCC(n2c(=O)[nH]c3ccccc32)CC1 (stereo not given),inactive: 9.63%
11,CC(=O)N(c1ccccc1)C1CCNCC1,inactive: 2.54%
12,COc1cccc(C(c2nnnn2C2CCCCC2)N2CCC(n3c(=O)[nH]c4ccccc43)CC2)c1OC (stereo not given),inactive: -9.76%
13,Cc1ccc(NC2(C#N)CCN(Cc3ccccc3)CC2)cc1,inactive: -2.19%
14,Fc1ccccc1NC1CCN(Cc2ccccc2)CC1,inactive: -3.45%
15,Cc1ccc(C(=O)NCC2(N3CCCCC3)CCCCC2)o1,inactive: -4.41%
16,CCC(CO)(C(=O)OC1CN2CCC1CC2)c1ccccc1 (stereo not given),inactive: -22.8%
17,COc1cc(OC)cc(C(=O)NCC2(N3CCOCC3)CCCCC2)c1,inactive: -4.35%
18,COc1cccc(C(c2nnnn2C2CCCC2)N2CCC(n3c(=O)[nH]c4ccccc43)CC2)c1OC (stereo not given),inactive: -11.9%
19,COc1cccc(C(=O)N(c2cc(C)cc(C)c2)C2CCN(C(=O)OC(C)(C)C)CC2)c1,inactive: -10.4%
20,CN1CCC(Nc2ccc(Cl)cc2)CC1,inactive: -6.4%

row,SMILES,activation
1,CN1CCC(Nc2ccc(F)c(Cl)c2)CC1,inactive: -8.85%
2,CCOc1ncccc1C(=O)NCC1(N2CCOCC2)CCCCC1,inactive: -2.67%
3,CCCOc1ccc(C(=O)NCC2(N(C)C)CCCCC2)cc1,inactive: 1%
4,O=c1[nH]c2ccccc2n1C1CCN(C(c2cc3ccccc3o2)c2nnnn2C2CCCC2)CC1 (stereo not given),inactive: -8.82%
5,O=C(O)C1(Nc2ccccc2)CCN(Cc2ccccc2)CC1,inactive: 2.2%
6,NN(c1ccccc1)C1CCN(CCc2ccccc2)CC1,inactive: -6.83%
7,CC(C)(C)OC(=O)N1CCC(Nc2ccccc2)CC1,inactive: -5.5%
8,N/C(=N\O)c1c(N)no[n+]1[O-],inactive: 5.08%
9,COc1cccc(C(c2nnnn2C(C)(C)C)N2CCC(n3c(=O)[nH]c4ccccc43)CC2)c1OC (stereo not given),inactive: -4.76%
10,CCOC(=O)N1CCC(Nc2ccc(C)cc2)CC1,inactive: 2.59%
11,CCCCn1nnnc1C(c1cccc(OC)c1OC)N1CCC(n2c(=O)[nH]c3ccccc32)CC1 (stereo not given),inactive: -15.1%
12,O=c1[nH]c2ccccc2n1C1CCN(C(c2cccs2)c2nnnn2C2CCCC2)CC1 (stereo not given),inactive: -13.6%
13,O=C(OC1CN2CCC1CC2)C1c2ccccc2C=Cc2ccccc21 (stereo not given),inactive: -16.7%
14,O=C(NCC1(N2CCOCC2)CCCCC1)c1cc(Br)ccc1Cl,inactive: 12.9%
15,COc1cc(C(=O)NCC2(N3CCOCC3)CCCCC2)cc(OC)c1C,inactive: 7.7%
16,CCCCn1nnnc1C(c1ccccc1)N1CCC(n2c(=O)[nH]c3ccccc32)CC1 (stereo not given),inactive: -14.5%
17,O=c1[nH]c2ccccc2n1C1CCN(C(c2ccnc3ccccc23)c2nnnn2C2CCCC2)CC1 (stereo not given),inactive: -11.1%
18,COc1ccc(C(=O)NCC2(N3CCOCC3)CCCCC2)cc1OC,inactive: 9.29%
19,O=c1[nH]c2ccccc2n1C1CCN(C(c2cccs2)c2nnnn2C2CCCCC2)CC1 (stereo not given),inactive: -15.3%
20,O=c1[nH]c2ccccc2n1C1CCN(C(c2ccccc2)c2nnnn2C2CCCC2)CC1 (stereo not given),inactive: -2.51%

row,SMILES,activation
1,CCCN1CCC(Nc2cc(OC)cc(OC)c2)CC1,inactive: -1.87%
2,Cc1cc(N(CCCl)CCCl)ccc1C=O,inactive: 0.14%
3,c1ccc(CN2CCC(Nc3ccccc3)CC2)cc1,inactive: -1.44%
4,CN(C)C1(CNC(=O)c2cccc(C#N)c2)CCCCC1,inactive: 3.31%
5,CC(C)(C)n1nnnc1C(c1cccc2ccccc12)N1CCC(n2c(=O)[nH]c3ccccc32)CC1 (stereo not given),inactive: -4.58%
6,CC(C)(C)OC(=O)N1CCC(N(C(=O)c2ccccc2)c2ccc(Cl)cc2)CC1,inactive: 2.16%
7,N#Cc1ccc(C(=O)NCC2(N3CCCCC3)CCCCC2)cc1,inactive: -1.23%
8,O=C(NCC1(N2CCCCC2)CCCCC1)c1cccc(C(F)(F)F)c1,inactive: -4.19%
9,CCCCn1nnnc1C(c1cccc2ccccc12)N1CCC(n2c(=O)[nH]c3ccccc32)CC1 (stereo not given),inactive: -6.08%
10,CN1CCN(CCOC(=O)C(O)(c2ccccc2)c2ccccc2)CC1,inactive: -35.9%
11,COc1ccc(NC2CCN(C(=O)OC(C)(C)C)CC2)cc1,inactive: -5.42%
12,CC(C)c1ccc(C(=O)NCC2(N3CCOCC3)CCCCC2)cc1,inactive: 2.37%
13,COc1cc(C(=O)NCC2(N3CCCCC3)CCCCC2)ccc1OC(F)F,inactive: -11.5%
14,O=C(NCC1(N2CCOCC2)CCCCC1)c1cc(=O)[nH]c2ccccc12,inactive: 7.45%
15,O=C(NCC1(N2CCCCC2)CCCCC1)c1ccc(OC(F)F)cc1,inactive: -9.95%
16,CC(C)(C)n1nnnc1C(c1ccccc1OC(F)(F)F)N1CCC(n2c(=O)[nH]c3ccccc32)CC1 (stereo not given),inactive: 2.72%
17,O=C(NCC1(N2CCCCC2)CCCCC1)c1cccc([N+](=O)[O-])c1,inactive: -4.33%
18,CSc1ccc(C(=O)NCC2(N3CCOCC3)CCCCC2)cc1,inactive: -1.49%
19,N#CC1(Nc2ccccc2)CCN(CCc2ccccc2)CC1,inactive: 15.8%
20,O=c1[nH]c2ccccc2n1C1CCN(C(c2ccccc2OC(F)(F)F)c2nnnn2C2CCCC2)CC1 (stereo not given),inactive: 0.95%
